From patent US7709613B2, “Rhenium-188 and rhenium-186 for treatment of tumors expressing a Na+/I− symporter” (priority 2002, dated 2010)
Like-named read-outs stand apart in the source and are kept apart here.

Tested on: NIS-expressing xenografted mammary adenocarcinoma (NAFA cells)
Format: in vivo, nude mice
Description: Animal model. […] Since erbB-2 (Neu) is one of the better known human breast cancer oncogenes, a mammary tumor cell line (NAFA) induced by oncogenic Neu was used. The NAFA cell line derived from the MMTV-NeuT mouse was grown in DMEM with 10% fetal bovine serum and 1% penicillin-streptomycin. […] Female nude mice (Charles River Laboratories) 4-6 weeks old were injected SC with 10^6 NAFA cells into the left groin.
Biodistribution. […] In order to block mg-NIS in expressing organs and tumor, control animals were injected with the above mixture of isotopes combined with 2 mg NaClO4. […] The % ID/g for each organ was determined, and RIs (% ID/g in the tumor divided by the % ID/g in normal tissue) were calculated.

`[I-].[Na+]` [^125I^−, sodium iodide] was tested, and the “Tumor to normal organ ratio (RI)” value (20 min, blood) was 0.57, the “Tumor to normal organ ratio (RI)” value (20 min, kidneys) was 1.29 and the “Tumor to normal organ ratio (RI)” value (20 min, liver) was 1.68. For the same molecule, the “Tumor to normal organ ratio (RI)” value (20 min, muscle) was 13.39, the “Tumor to normal organ ratio (RI)” value (20 min, salivary glands) was 2.20 and the “Tumor to normal organ ratio (RI)” value (20 min, spleen) was 1.60. The “Tumor to normal organ ratio (RI)” value (20 min, stomach) was 0.11, the “Tumor to normal organ ratio (RI)” value (20 min, thyroid) was 0.60 and the “Tumor to normal organ ratio (RI)” value (20 min, tumor) was 1.00. The “Tumor to normal organ ratio (RI)” value (2 hr, blood) was 0.68, the “Tumor to normal organ ratio (RI)” value (2 hr, kidneys) was 1.50 and the “Tumor to normal organ ratio (RI)” value (2 hr, liver) was 2.04. The “Tumor to normal organ ratio (RI)” value (2 hr, muscle) was 12.17, the “Tumor to normal organ ratio (RI)” value (2 hr, salivary glands) was 1.21 and the “Tumor to normal organ ratio (RI)” value (2 hr, spleen) was 2.62. For the same molecule, the “Tumor to normal organ ratio (RI)” value (2 hr, stomach) was 0.11, the “Tumor to normal organ ratio (RI)” value (2 hr, thyroid) was 0.13 and the “Tumor to normal organ ratio (RI)” value (2 hr, tumor) was 1.00. For the same molecule, the “Tumor to normal organ ratio (RI)” value (24 hr, blood) was 1.67, the “Tumor to normal organ ratio (RI)” value (24 hr, kidneys) was 2.77 and the “Tumor to normal organ ratio (RI)” value (24 hr, muscle) was 6.25. The “Tumor to normal organ ratio (RI)” value (24 hr, salivary glands) was 2.50, the “Tumor to normal organ ratio (RI)” value (24 hr, spleen) was 2.50 and the “Tumor to normal organ ratio (RI)” value (24 hr, stomach) was 0.19. For the same molecule, the “Tumor to normal organ ratio (RI)” value (24 hr, thyroid) was 0.01 and the “Tumor to normal organ ratio (RI)” value (24 hr, tumor) was 1.00.
